{"sequences": {"note": "Chains of the proteins cited; added tags and fusions are not shown. Lines headed by an entry give the natural chain unless they say otherwise; changes in a name come on top.", "UniProt P55212": "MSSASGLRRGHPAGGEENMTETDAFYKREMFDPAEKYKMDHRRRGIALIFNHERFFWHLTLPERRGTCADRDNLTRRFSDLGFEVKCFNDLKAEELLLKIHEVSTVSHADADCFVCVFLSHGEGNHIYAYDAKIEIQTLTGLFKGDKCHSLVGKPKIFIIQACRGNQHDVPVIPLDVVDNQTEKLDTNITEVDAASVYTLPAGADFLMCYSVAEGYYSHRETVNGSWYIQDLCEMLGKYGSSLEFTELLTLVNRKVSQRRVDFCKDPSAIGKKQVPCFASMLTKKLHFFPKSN"}, "source": "PubChem BioAssay AID720632", "about": "(Broad Institute, 2013)", "biological_target": "Caspase-6 (Homo sapiens) (UniProt P55212)", "assay": "inhibition of CASP6 peptide cleavage – biochemical, VEID-R110 fluorescence, cherry-pick, dose response (AID 720632)", "settings": "caspase-6, VEID-R110 fluorogenic substrate"}
{"smiles": "C[N+]1=C2C=CC=CC=C2SC12C([N+](=O)[O-])=CC([N+](=O)[O-])=C[C-]2[N+](=O)[O-]", "note": "(stereo unspecified)", "values": [{"measurement": "AC50", "value": 1700, "unit": "nM"}]}
